The target of this experiment is IRAK4 (Homo sapiens, UniProt Q9NWZ3). As to the kind of experiment: IRAK4 degradation assay using the HiBiT Method. The following applies: 293T cells expressing HiBiT-tagged IRAK4; 6-hour incubation; Nano-Glo HiBiT Lytic Assay luminescence. How it is done:
Selected compounds were tested in an IRAK4 degradation assay using the HiBiT Method.
Phenol red-free Dulbecco's modified Eagle medium (DMEM) and fetal bovine serum (FBS) were purchased from Gibco (Grand Island, NY, USA). The Nano-Glo© HiBiT Lytic Assay System was purchased from Promega (Madison, WI, USA). Cell culture flasks and 384-well microplates were acquired from VWR (Radnor, PA, USA). The 293T cell line was engineered by knocking-in a HiBiT fusion tag into the C-terminal of the IRAK4 gene in 293T cells (Synthego, Redwood City, CA, USA).
IRAK4 degradation was measured via the quantification of luminescent signals using the Nano-Glo© HiBiT Lytic Assay kit. Test compounds were added to 384-well plates in duplicate using an 11-point half-log dilution series, with the highest dose set at 10 mM. 293T cells expressing HiBiT-tagged IRAK4 were then added into 384-well plates at a cell density of 10,000 cells per well. The plates were kept at 37° C. with 5% CO2 for 6 hours. Cells that were treated only with DMSO served as the negative control; wells that contained only assay media served as the background control. After the 6-hour incubation, Nano-Glo® HiBiT Lytic Assay reagents were added to the cells. Luminescence was acquired using an EnVision® Multilabel Reader (PerkinElmer, Santa Clara, CA, USA).
Background: With HiBiT, luminescence reflects the tagged protein that the partner subunit can reach.

Chains of the proteins cited; added tags and fusions are not shown.
UniProt Q9NWZ3, whole entry: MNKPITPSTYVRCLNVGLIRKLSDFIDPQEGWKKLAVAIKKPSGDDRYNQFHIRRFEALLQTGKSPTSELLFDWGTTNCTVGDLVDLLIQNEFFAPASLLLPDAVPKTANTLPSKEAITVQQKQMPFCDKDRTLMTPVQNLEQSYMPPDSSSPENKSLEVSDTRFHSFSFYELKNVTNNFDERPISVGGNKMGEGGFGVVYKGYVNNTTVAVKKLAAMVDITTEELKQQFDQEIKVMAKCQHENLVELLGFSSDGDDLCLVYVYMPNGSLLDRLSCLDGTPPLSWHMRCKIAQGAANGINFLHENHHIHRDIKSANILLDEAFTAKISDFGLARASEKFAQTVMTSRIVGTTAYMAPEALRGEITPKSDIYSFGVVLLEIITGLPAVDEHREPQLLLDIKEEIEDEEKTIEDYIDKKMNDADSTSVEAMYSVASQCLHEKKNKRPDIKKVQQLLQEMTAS

Our source for the DC50 values is US20250018046A1, “COMPOUNDS FOR TARGETING DEGRADATION OF IRAK4 PROTEINS” (BIOGEN MA INC, priority 2021, published 2025).

As usually defined, the DC50 is the concentration at which degradation of the target reaches its halfway point. A high value points to degradation only at high concentration.

The structures appear in SMILES notation.

Compound `CC(C)Oc1cc2nc(C3CCN(CCN4CCC(c5ccc(OC6CCC(=O)NC6=O)cc5)CC4)CC3)cn2cc1NC(=O)c1cccc(C(F)(F)F)n1` (centres unmarked) displayed a DC50 of 100 to 500 nM.

`CC(C)Oc1cc2nc([C@H]3CC[C@H](CN4CCC(c5ccc(NC6CCC(=O)NC6=O)cc5F)CC4)CC3)cn2cc1NC(=O)c1cccc(C(F)(F)F)n1` (relative stereo) displayed a DC50 above 1000 nM.
